Yeast mating assay 2: variants of the scFv Ab-91

Source: Engelhart et al. 2022 (doi:10.1038/s41597-022-01779-4), MIT Lincoln Laboratory and A-Alpha Bio; data file from the FLAb repository.

Antigen: PDVDLGDISGINAS, a 14-residue peptide of the SARS-CoV-2 spike HR2 region.

Parent scFv Ab-91: VL joined to VH by three GGGGS repeats. Changes lie in the heavy chain CDRs alone.
VL: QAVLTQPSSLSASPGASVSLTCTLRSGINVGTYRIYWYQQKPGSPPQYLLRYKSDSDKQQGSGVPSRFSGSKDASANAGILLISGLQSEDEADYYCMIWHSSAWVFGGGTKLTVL
VH: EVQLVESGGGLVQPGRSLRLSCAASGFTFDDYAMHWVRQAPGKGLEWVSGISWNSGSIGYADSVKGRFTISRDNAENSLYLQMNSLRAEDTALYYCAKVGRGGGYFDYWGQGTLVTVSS

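Phage display of a naive human antibody library on the peptide gave the parent. The library (AAYL51) carries one to three amino acid substitutions per variant, with no insertions or deletions. Affinity was read by AlphaSeq, a pooled yeast mating assay with surface-displayed partners. After mating in shaken culture at 30 °C for 16 h, diploids were selected and their barcode pairs sequenced. A regression on co-assayed BCL2-family reference pairs converts the normalised counts of each replicate to an apparent Kd. Mating was done three times.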

Each variant is given by its three heavy chain CDRs, as the data file delimits them; those of the parent are GFTFDDYAMH, GISWNSGSIGYADSVK, VGRGGGYFDY.
Kd is apparent (estimated from mating counts) and averaged on the log scale over replicates with a signal. Smaller is tighter.
A pair that was not seen in any replicate is written "nd"; this usually means weak binding, but a binder can also be missed.
As a blank, each scFv also met three strains without target: over library AAYL51, 21% of these pairings were detected, typically at 34 µM and seldom below 1.8 µM. The control count says in how many pairings with the empty strains this scFv gave a signal.

For WFTFGDYAMH / GISWNSGSIGYADSVK / VGRGGGYFDY, the assay gave 24 µM (2 of 3 replicates; controls 1 of 9).
For GFTFDDYAMH / GISNNSGSIGYHDSVK / VTRGGGYFDY, the assay gave nd (0 of 3 replicates; controls 0 of 9).
For GFWFDDYAMH / GISWNSGSIGYADSVK / VGRGWGYFDY, the assay gave 360 µM (1 of 3 replicates; controls 1 of 9).
For GFTIDDYAMH / GISLNSGSGGYADSVK / VGRGGGYFDY, the assay gave 5.8 µM (1 of 3 replicates; controls 1 of 9).
For GFTFDDYAMV / GISWNSGSIGYADLVK / VGIGGGYFDY, the assay gave nd (0 of 3 replicates; controls 0 of 9).
For GFTFPDYGMH / GISWNSGSIGYADSVK / VGRGGGYMDY, the assay gave 1.7 nM (3 of 3 replicates; controls 6 of 9).
For GFTFDDRAMH / GISWNSGSIGYADYVK / VGRGGGYFDY, the assay gave 16 µM (1 of 3 replicates; controls 1 of 9).
For GFTFDDYAMH / GISWPSGSIEYADSVK / VGRGGGCFDY, the assay gave 31 µM (1 of 3 replicates; controls 2 of 9).
For GFTFDDYAMH / GPSWNSGSIGYAISVK / VGRGGGYFLY, the assay gave nd (0 of 3 replicates; controls 0 of 9).
For GFTFDDYEMH / GISWNSFSIGYADSWK / VGRGGGYFDY, the assay gave 3.2 µM (1 of 3 replicates; controls 0 of 9).
For GFTFHDYAMH / GIPWNSGSIGYADQVK / VGRGGGYFDY, the assay gave 110 µM (3 of 3 replicates; controls 5 of 9).
For GFTFDDQAMH / GISPNSNSIGYADSVK / VGRGGGYFDY, the assay gave 160 nM (3 of 3 replicates; controls 1 of 9).
For PFTFDDYAMH / GISWNSGSIGYADSVW / VVRGGGYFDY, the assay gave 22 µM (2 of 3 replicates; controls 4 of 9).
For GFTFDDYCMH / GISWNSGSIGMADSVK / VGRGGGYFDY, the assay gave 58 µM (1 of 3 replicates; controls 2 of 9).
For GFFFDDYAMH / GISWNSGSIGYADSRK / VTRGGGYFDY, the assay gave 150 µM (3 of 3 replicates; controls 4 of 9).
For GFTFDDYAMH / GISWNYGSIGYADSVW / VGRGTGYFDY, the assay gave 4.5 µM (1 of 3 replicates; controls 0 of 9).
For GFTFRDYAMH / GISWNSGSIGYADSHK / VQRGGGYFDY, the assay gave 36 nM (3 of 3 replicates; controls 2 of 9).
For GKTFDAYAMH / GISYNSGSIGYADSVK / VGRGGGYFDY, the assay gave nd (0 of 3 replicates; controls 0 of 9).
For GNTFDDYAMH / GISWNSGSIGYADSVK / VGRGIGYEDY, the assay gave nd (0 of 3 replicates; controls 0 of 9).
For GFTFDDYAMH / PTSWNSGSIGYADSVK / VGRGGTYFDY, the assay gave 10 µM (1 of 3 replicates; controls 3 of 9).
For GFTFDDYAMH / GISWNSGSIGYAISVW / VGEGGGYFDY, the assay gave nd (0 of 3 replicates; controls 0 of 9).
For GFTFDDYAMH / GISLNSGSIGYADSVK / DGRGGYYFDY, the assay gave 42 µM (1 of 3 replicates; controls 2 of 9).
For GFTFDDYAMH / GISWNSLSIGYADSLK / CGRGGGYFDY, the assay gave nd (0 of 3 replicates; controls 1 of 9).
For GFTFDDYAMH / GISWNSGSIWAADSVK / VGIGGGYFDY, the assay gave 140 µM (2 of 3 replicates; controls 3 of 9).
For GFTFDDYAMH / GISWNSGSIGYMDSVK / VGQGGGYFDI, the assay gave 12 µM (3 of 3 replicates; controls 3 of 9).
For GFTFDDYAMH / GISWNSGSIGYADSVK / VGRQGWYTDY, the assay gave 3.2 µM (1 of 3 replicates; controls 1 of 9).
For GFTFDDYAMH / GISWNSGSIGMASSVK / VWRGGGYFDY, the assay gave nd (0 of 3 replicates; controls 1 of 9).
For GFTFDWYAMH / GISWNSGSIGVADSVD / VGRGGGYFDY, the assay gave nd (0 of 3 replicates; controls 1 of 9).
For GMTFDDYAMH / GLSANSGSIGYADSVK / VGRGGGYFDY, the assay gave 180 nM (3 of 3 replicates; controls 1 of 9).
For GRTFDDYAMH / GISWNSGSIGYADSVK / KGRGPGYFDY, the assay gave nd (0 of 3 replicates; controls 1 of 9).
For GFTFDDYAMH / GISWNSGYIGYADSVK / VGRGGRYHDY, the assay gave 170 nM (1 of 3 replicates; controls 0 of 9).
For GFFFDDYAMH / GISWNSGSIGYADLVK / VGRGGGDFDY, the assay gave 130 µM (2 of 3 replicates; controls 7 of 9).
For GFTFDDYAYH / GISWNSRSIGYADSVK / VGRNGGYFDY, the assay gave 7.5 µM (1 of 3 replicates; controls 2 of 9).
For WFTFDDYAMN / AISWNSGSIGYADSVK / VGRGGGYFDY, the assay gave nd (0 of 3 replicates; controls 0 of 9).

Excerpt, the first 3 entries:

The variant WFTFGDYAMH / GISWNSGSIGYADSVK / VGRGGGYFDY showed 24 µM (2 of 3 replicates; controls 1 of 9).
The variant GFTFDDYAMH / GISNNSGSIGYHDSVK / VTRGGGYFDY showed nd (0 of 3 replicates; controls 0 of 9).
The variant GFWFDDYAMH / GISWNSGSIGYADSVK / VGRGWGYFDY showed 360 µM (1 of 3 replicates; controls 1 of 9).